Here are results for one molecule from patent US12060387B2, “Polypeptide-based shuttle agents for improving the transduction efficiency of polypeptide cargos to the cytosol of target eukaryotic cells, uses thereof, methods and kits relating to same” (priority 2015, dated 2024).

Series [1] is described as follows: Cell toxicity / % cell viability by flow cytometry (cells in total events v. untreated). In kind it is cell-based. Particulars: human, HeLa cells, Cell viability (%) (±St. Dev.; n = 3), FIG. 29D.
Series [2] concerns HeLa cells. The series is described as follows: GFP-NLS transduction efficiency, flow cytometry (Pos cells %, relative fluorescence intensity FL1-A). Particulars: Protocol B, peptide 50 μM, GFP-NLS 5 μM, 10 seconds. In kind it is cell-based, Human.

In series [1], `CC[C@H](C)[C@H](NC(=O)[C@H](CCCCN)NC(=O)[C@@H](NC(=O)[C@H](CCC(N)=O)NC(=O)[C@@H](N)CCCNC(=N)N)[C@@H](C)CC)C(=O)N[C@@H](Cc1c[nH]c2ccccc12)C(=O)N[C@@H](Cc1ccccc1)C(=O)N[C@@H](CCC(N)=O)C(=O)N[C@@H](CC(N)=O)C(=O)N[C@@H](CCCNC(=N)N)C(=O)N[C@@H](CCCNC(=N)N)C(=O)N[C@@H](CCSC)C(=O)N[C@@H](CCCCN)C(=O)N[C@@H](Cc1c[nH]c2ccccc12)C(=O)N[C@@H](CCCCN)C(=O)N[C@@H](CCCCN)C(=O)N[C@@H](CS)C(=O)O` [Penetratin (Pen)] had a viability at 10 s, 50 µM of 96 ± 0.6%. In series [2], the “Mean % cells with GFP signal (±St. Dev.; n = 3), FIG. 29D” value stood at 3.6 ± 0.1%.
